{"source": "patent US20240139349A1", "about": "“GADOLINIUM CHELATE, PREPARATION METHOD THEREFOR, AND APPLICATION THEREOF” (SUZHOU ZHECI PHARMACEUTICAL TECHNOLOGY CO., LTD., priority 2021, published 2024)", "test": "In vitro MRI determination of longitudinal and transverse relaxation rates (r1, r2) of aqueous solutions", "type": "physicochemical", "key": {"[1]": {"settings": "H0 3.0 T clinical MRI system (Philips, Ingenia), aqueous solutions"}}}
{"substance": "Gd-HSA: gadolinium chelate of human serum albumin", "values": [{"measurement": "r2/r1", "setting": "H0 3.0 T", "value": "1.74±0.02"}, {"measurement": "r1 (longitudinal relaxation rate)", "setting": "[1]", "value": "34430 ± 540", "unit": "M⁻¹ s⁻¹"}, {"measurement": "r2 (transverse relaxation rate)", "setting": "[1]", "value": "59920 ± 1570", "unit": "M⁻¹ s⁻¹"}]}
